The source of these data is ChEMBL document CHEMBL1157133, “Design, synthesis, and interaction study of quinazoline-2(1H)-thione derivatives as novel potential Bcl-xL inhibitors” (J Med Chem, 2010).

The test system of the test is PC-3. The experiment in a line: Cytotoxicity against human PC3 cells after 48 hrs by MTT assay. It is filed as functional, cell-based.
On to `O=C(O)COc1cccc(/C=c2\sc3n(c2=O)C(c2ccccc2)C2=C(N=3)c3ccccc3CC2)c1` (configuration not stated), for which the Activity entry is “Dose-dependent effect”.

Take `O=C(O)COc1cccc(/C=c2\sc3n(c2=O)C(c2cccc4ccccc24)C2=C(N=3)c3ccccc3CC2)c1` (configuration not stated): the Activity result is “Dose-dependent effect”.

Regarding `COc1ccccc1C1C2=C(N=c3s/c(=C\c4ccc(C(=O)O)cc4)c(=O)n31)c1ccccc1CC2` (configuration not stated), the Activity entry is “Dose-dependent effect”.

Turning to `COc1ccccc1C1C2=C(N=c3s/c(=C\c4ccc(-c5cccc(C(=O)O)c5)cc4)c(=O)n31)c1ccccc1CC2` (configuration not stated), the Activity result is “Dose-dependent effect”.

`O=C(O)c1cccc(-c2ccc(/C=c3\sc4n(c3=O)C(c3cccc(F)c3)C3=C(N=4)/C(=C/c4cccc(F)c4)CCC3)o2)c1` (configuration not stated): the Activity result is “Dose-dependent effect”.

For the molecule `O=C(O)c1cccc(-c2ccc(/C=c3\sc4n(c3=O)C(c3ccccc3)C3=C(N=4)c4ccccc4CC3)o2)c1` (configuration not stated), the Activity result was “Dose-dependent effect”.

With `CCOC(=O)COc1cccc(/C=c2\sc3n(c2=O)C(c2ccccc2OC)C2=C(N=3)c3ccccc3CC2)c1` (configuration not stated), the Activity entry is “Dose-dependent effect”.

As for `COc1ccccc1C1C=C(c2ccccc2)N=c2s/c(=C\c3cccc(OCC(=O)O)c3)c(=O)n21` (configuration not stated), the Activity entry was “Dose-dependent effect”.

Take `COc1ccccc1C1C2=C(N=c3s/c(=C\c4ccc(OCC(=O)O)cc4)c(=O)n31)c1ccccc1CC2` (configuration not stated): the Activity result was “Dose-dependent effect”.

On to `COc1ccccc1C1C2=C(N=c3s/c(=C\c4ccc(-c5cccc(C(=O)O)c5)o4)c(=O)n31)c1ccccc1CC2` (configuration not stated), for which the Activity entry was “Dose-dependent effect”.

Turning to `O=C(O)COc1cccc(/C=c2\sc3n(c2=O)C(c2cccc(F)c2)C2=C(N=3)/C(=C/c3cccc(F)c3)CCC2)c1` (configuration not stated), the Activity result was “Dose-dependent effect”.

Consider `O=C(O)c1cccc(-c2ccc(/C=c3\sc4n(c3=O)C(c3ccccc3F)C3=C(N=4)c4ccccc4CC3)o2)c1` (configuration not stated), for which the Activity result was “Dose-dependent effect”.
